Holding throughout (assay type): organism-based
Settings in all cases: in vivo

One data set concerns Mus musculus. The data set can be described thus: Ratio of LD50 for po dosed mouse to PD50 for acute toxicity in po dosed mouse assessed as concentration required to produce 50% loss of righting reflex.
The nature of data set [1]: Therapeutic index, ratio of PD50 for acute toxicity in po dosed mouse assessed as concentration required to produce 50% loss of righting reflex to MED causing antianxiety activity in ip dosed rat assessed as effect on increase in punished responses.
Data set [2] is described as follows: Therapeutic index, ratio of PD50 for acute toxicity in po dosed mouse assessed as concentration required to produce 50% loss of righting reflex to MED20 for muscle relaxant activity in po dosed mouse assessed as blockade of pentylenetetrazol-induced tonic extensor seizure.
A short description of data set [3]: Therapeutic index, ratio of PD50 for acute toxicity in po dosed mouse assessed as concentration required to produce 50% loss of righting reflex to MED20 for anticonvulsant activity in po dosed mouse assessed as blockade of supramaximal electroshock-induced […] seizure. Background: The maximal electroshock test induces tonic seizures with an electrical stimulus.

Data set [4] in a line: Therapeutic index, ratio of PD50 for acute toxicity in po dosed mouse assessed as concentration required to produce 50% loss of righting reflex to MED25 for muscle relaxant activity in po dosed mouse assessed as increase in strychnine-induced persistant convulsive threshold.

Turning to `CN1C(=O)CN=C(c2ccccc2)c2cc(Cl)ccc21` [DIAZEPAM], the Ratio in the data set on Mus musculus is recorded as 1.1. Moreover, the TI in data set [1] was 485; in data set [2], 485; in data set [3], 36; in data set [4], 2900.

The values above are taken from ChEMBL document CHEMBL3243921, “2-Pyrrolidinylideneureas, a new class of central nervous system agents” (J Med Chem, 1978).
